We go through one compound from patent US8388990B2, “Acidified chlorite compositions containing nitrogenous stabilizers and systems and methods related thereto” (Ecolab USA Inc., priority 2002, dated 2013).

A short description of this data set: Effect of nitrogenous stabilizer on chlorite consumption in composition with FD&C Yellow #5 (Examples 3, 4, 8). Conditions: composition with FD&C Yellow #5, pH 2.5, versus control.

Take `OCCN(CCO)CCO`: the “effect on rate of sodium chlorite consumption / chlorite longevity (in words)” value is “accelerate the rate of sodium chlorite consumption”.
